Source: US20260249027A1, “METERED DOSE INHALERS AND HIGH-DOSE SUSPENSIONS” (Kindeva Drug Delivery L.P., priority 2023, published 2026)

Assay: Through life dose consistency of sodium cromoglycate pMDI suspensions (USP <601>, apparatus A)
Type: physicochemical
Conditions: nominal ex-valve 0.5 mg/act; HFA-152a
Method: In the following examples, dose consistency was determined by in vitro measurement of single actuation dose content at start, middle and end of pMDI unit life in line with U.S. Pharmacopeia (USP)<601>, using a flow rate of 28.3 L/min and apparatus A. Aerodynamic particle size distribution of the pMDI suspension aerosols was measured at start of unit life in line with U.S. Pharmacopeia (USP)<601> using a Next Generation impactor without pre-separator (apparatus 6) and a flow rate of 30 L/min.
Suspensions of micronized sodium cromoglycate in HFA-152a or HFO-1234ze(E) were prepared. A first set of suspensions included no ethanol. A second set of suspensions included 2% ethanol by weight. Each suspension included an amount of sodium cromoglycate to provide a nominal delivered dose (ex-valve) of 0.5 mg/actuation (10.0 mg/mL) or 1.0 mg/actuation (20.0 mg/mL). Two further suspensions including no ethanol were prepared which included an amount of sodium cromoglycate to provide a nominal delivered dose (ex-valve) of 2.0 mg/actuation (40.0 mg/mL). […]
The through-life (TL) dose consistency of each pMDI unit was determined by measuring the mean ex-actuator delivered dose in micrograms of sodium cromoglycate (N=3) at the start of life (SoL), middle of life (MOL) and end of life (EoL) of the unit.

EoL mean delivered dose: 307.9 μg/act
SMILES: O=C(O)c1cc(=O)c2c(OCC(O)COc3cccc4oc(C(=O)O)cc(=O)c34)cccc2o1 [sodium cromoglycate]
